These results are taken from PubChem BioAssay AID504411 (The Scripps Research Institute Molecular Screening Center, 2011).

Sequences of proteins named here, by UniProt entry; tags and fusion partners are left off. A change or cut given only in a name is not applied to a line headed by its entry.
UniProt Q8NCG7: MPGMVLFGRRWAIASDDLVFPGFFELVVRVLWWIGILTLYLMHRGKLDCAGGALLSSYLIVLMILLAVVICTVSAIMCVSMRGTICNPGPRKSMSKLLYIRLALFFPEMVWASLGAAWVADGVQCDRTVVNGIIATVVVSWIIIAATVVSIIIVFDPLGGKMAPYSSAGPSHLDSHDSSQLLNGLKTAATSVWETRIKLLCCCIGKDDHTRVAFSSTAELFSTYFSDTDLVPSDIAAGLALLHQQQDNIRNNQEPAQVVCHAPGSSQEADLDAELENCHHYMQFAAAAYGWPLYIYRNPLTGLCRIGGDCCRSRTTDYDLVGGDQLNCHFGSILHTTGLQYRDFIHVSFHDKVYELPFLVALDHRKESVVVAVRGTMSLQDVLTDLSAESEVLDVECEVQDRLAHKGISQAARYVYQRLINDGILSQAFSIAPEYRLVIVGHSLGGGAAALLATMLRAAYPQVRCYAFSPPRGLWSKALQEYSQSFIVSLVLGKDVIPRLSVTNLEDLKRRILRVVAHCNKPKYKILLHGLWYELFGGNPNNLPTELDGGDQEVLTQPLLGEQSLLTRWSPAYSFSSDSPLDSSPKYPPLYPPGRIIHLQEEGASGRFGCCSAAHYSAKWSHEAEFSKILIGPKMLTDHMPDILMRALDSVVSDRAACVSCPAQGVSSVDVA

Structures are written as SMILES. The list shows a part of the results, in another mix than the full data. The source made the active and inactive calls. Rule as the data show it: active = inhibition above about 34%; inactive = the rest.

For the experiment, the target named is Diacylglycerol lipase-beta (Homo sapiens) (UniProt Q8NCG7). Kind of experiment: DAGLB lipase inhibitors, primary screen, biochemical, fluorescence, HTS (AID 504411).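 Also: 0% = enzyme with vehicle and 100% = wells lacking enzyme.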 The settings on record: HEK293T DAGLB membrane lysate, EnzChek fluorogenic substrate; at 5.17 µM; hits give high values.
On to `CC(C)c1ccc(OP(=O)(Nc2ccccn2)Oc2ccccc2F)cc1` (stereo not drawn), for which the inhibition (as a rule, the drop in the measured response relative to a control, in per cent) is inactive: -2.23%.
The value for `COC(=O)C1(C)COP(=O)(N2CCCCCC2)OC1` (stereo not drawn) was inactive: -0.11%.
The value for `O=C(OC1CN2CCC1CC2)c1cccc2[nH]cnc12` (stereo not drawn) was inactive: -1.84%; that for `CCN(CC)C(=S)SC(NC=O)C(Cl)(Cl)Cl` (stereo not drawn) was inactive: 2.16%; that for `O=[N+]([O-])c1cc([N+](=O)[O-])c(-c2ccn[nH]2)s1` was inactive: 0.7%.
The value for `O=[As](O)(c1ccc(O)cc1)c1ccccc1O` was inactive: 4.1%; that for `C[As](=O)(O)c1cccc(C(=O)O)c1` was inactive: -2.58%; that for `COc1cc(C(=O)NCC2(N3CCOCC3)CCCCC2)ccc1OCC(C)C` was inactive: -2.11%.
Regarding `O=[N+]([O-])c1ccc(-c2cc([N+](=O)[O-])c(O)c([N+](=O)[O-])c2)cc1`, the inhibition is active: 34.8%.
For the compound `Cc1ccc(OP(=O)(Nc2ccc([N+](=O)[O-])cn2)Oc2ccc(C)cc2)cc1`, the inhibition is inactive: -1.81%.
For `Cc1ccc2nc3c(c(C)c2c1)CC(C(Cl)Cl)S3` (stereo not drawn) the value was inactive: -12.8%; for `O=[N+]([O-])c1cc(Oc2ccc([N+](=O)[O-])cc2C(F)(F)F)cc([N+](=O)[O-])c1`, inactive: 1.59%.
The value for `COc1ccc(N/C(=N/P(=O)(N2CCOCC2)N2CCOCC2)N2CCOCC2)cc1` was inactive: -1.21%; that for `Cc1c2c(nc3ccccc13)SC(C(Cl)Cl)C2` (stereo not drawn) was inactive: -5.47%; that for `O=C(OC1CN2CCC1CC2)C12CC3CC(CC(C3)C1)C2` (stereo not drawn) was inactive: 0.38%.
For `Cc1cc(=O)[nH]c(N[N+](=O)[O-])n1` the value was inactive: -2.85%.
As to `O=P1(N(CCCl)CCCl)OCCCN1CCCl` (stereo not drawn), the inhibition is inactive: 0.57%.
Take `O=P1(N(CCCl)CCCl)Nc2ccccc2N1`: the inhibition was inactive: -2.59%.
For `COc1ccc2nc(NP(=O)(c3ccccc3)c3ccccc3)sc2c1` the value was inactive: -2.17%; for `COc1cc(I)ccc1[As](=O)(O)O`, inactive: 2.32%; for `O=C(OC1CN2CCC1CC2)c1cccc([N+](=O)[O-])c1` (stereo not drawn), inactive: -0.19%.
The value for `CSc1ccc(Nc2c([N+](=O)[O-])cc([N+](=O)[O-])cc2[N+](=O)[O-])cc1` was inactive: 26.3%; that for `CCOC(=O)c1ccc(NC(=O)C(C)(CCl)SC)cc1` (stereo not drawn) was inactive: -2.36%; that for `CCC(C)N(CC(C)C)C(=S)SC(NC(C)=O)C(Cl)(Cl)Cl` (stereo not drawn) was inactive: 0.12%.
For `COP1(=S)c2c(C)nn(CCC#N)c2N=C(c2ccc(F)cc2)N1C` (stereo not drawn) the value was inactive: -1.43%; for `O=C(O)C(=O)c1ccc(N(CCCl)CCCl)cc1`, inactive: -1.78%.
As for `O=C(COc1ccccc1)OC1CN2CCC1CC2` (stereo not drawn), the inhibition was inactive: -1.86%.
The value for `O=C(Nc1ccncc1[N+](=O)[O-])c1ccc([N+](=O)[O-])cc1[N+](=O)[O-]` was inactive: -0.59%; that for `CCOC(=O)Nc1cccc([As](=O)(O)O)c1` was inactive: -6.74%; that for `Cc1cc(SC(NC=O)C(Cl)(Cl)Cl)ncn1` (stereo not drawn) was inactive: -6.03%.
The value for `O=P(Nc1ccccn1)(c1cccc2ccccc12)c1cccc2ccccc12` was inactive: 0.47%; that for `O=[N+]([O-])c1ccc(Nc2ccc(Oc3ccc([N+](=O)[O-])cc3[N+](=O)[O-])cc2)c([N+](=O)[O-])c1` was inactive: -3.86%; that for `O=C(O)C(O)c1ccc(N(CCCl)CCCl)cc1` (stereo not drawn) was inactive: -3.64%.
The value for `CCOC(=O)Nc1ccc([As](=O)(O)O)c(O)c1` was inactive: -1.76%; that for `CC1CCNP(=O)(N(CCCl)CCCl)O1` (stereo not drawn) was inactive: -4.27%; that for `COP(=O)(OC)N1CC1c1ccccc1` (stereo not drawn) was inactive: 0.29%.
`CCCCOc1ccc(C(=O)NCC2(N3CCCCC3)CCCCC2)cc1OC`: the inhibition was inactive: 2.16%.
The value for `Cc1cc(SC(NC(=O)c2ccccc2)C(Cl)(Cl)Cl)nc(C(C)C)n1` (stereo not drawn) was inactive: -3.22%.
